Reference: patent US4900719A, “Nitrosothiols as hypotensive agents” (The Ohio State University, priority 1988, dated 1990)

Key:
anesthetized dogs = assay: arterial blood pressure after intravenous injection in anesthetized dogs (Examples 2 and 3); type: in vivo; details: intravenous injection in dextrose
Experimental: Fifty milligrams of SNP (Nipride, Roche Laboratories) was reconstituted in 250 ml of 5% dextrose in water. A GSNO solution was diluted as 50 ug/ml in 5% dextrose in water. Seven mongrel dogs (18.1-31.8 kg) and seven cynomologus monkeys (Macaca fascicularis; 4.4-9.0 kg) were used in the study. The animals were given a pre-anesthetic (monkeys--Ketamine HCl, 10 mg/kg I.M.; dogs--0.2 mg/kg fentanyl and 1 mg/kg droperidol, Innovar Vet I.V.) and anesthetized with a mixture of α-chloralose (50 mg/kg) and urethane (500 mg/kg) given as an intravenous injection. The left femoral artery and vein were cannulated with heparinized saline-filled catheters. Arterial pressure was obtained from the arterial catheter using an electromedics MS-20 solid state pressure transducer and recorded on a Gould 2400 chart recorder. Randomized venous infusions of GSNO (n=7) and SNP (n=5) were made using Harvard apparatus compact infusion pump model 976. The infusion was maintained until a new steady state value for mean arterial pressure had been obtained for each infusion rate. […]
By following in general the procedure described for GSNO in Example 1, animal experiments are performed on a plurality of anesthetized dogs with each intravenous injection of S-Nitrosocaptopril in dextrose as well as the arterial blood pressure of the dogs being recorded. […]

[1] = stability of other nitrosothiols (qualitative statement); type: physicochemical

Substance: S-nitroso derivative of human serum albumin: S-nitroso derivative of human serum albumin, made by transnitrosation from S-nitroso-3-mercaptopropionic acid
- lowering of arterial blood pressure (in words) (anesthetized dogs): Significant lowering of arterial blood pressure
- stability (in words) [1]: quite stable
